Read-outs that look alike come from different tables or passages of the source.
System: L1210 leukemia cells
Conditions: for phototoxicity toward L1210 leukemia cells (in words): 1.0×10^−6 M dye, 12% FBS, light up to 90 min (FIG. 3 upper panel); for selectivity of phototoxic effect, tumor (L1210) versus normal (CFU-GM) cells (in words): comparison of FIG. 3 upper and lower panels

SMILES	phototoxicity toward L1210 leukemia cells (in words)	selectivity of phototoxic effect, tumor (L1210) versus normal (CFU-GM) cells (in words)	phototoxicity toward L1210 leukemia cells (in words) (listed as VPBBO+)	phototoxic effect toward L1210 cells on purging with argon (cell suspension purged with argon immediately before irradiation (data not shown))	phototoxic effect toward L1210 cells on purging with oxygen (cell suspension purged with oxygen before irradiation (data not shown))
CCN(CC)c1ccc(C(=C2C=CC(=[N+](CC)CC)C=C2)c2ccc(N(CC)CC)cc2)cc1 [EV^+, ethyl violet]	phototoxic toward both cell lines	slightly	–	–	–
CCN=C1C=CC(=C(c2ccc(N(C)C)cc2)c2ccc(N(C)C)cc2)c2ccccc21.Cl [VBR^+, victoria blue R]	lowest efficacy	slightly	–	–	–
CCN=C1C=CC(=C(c2ccc(N(CC)CC)cc2)c2ccc(N(CC)CC)cc2)c2ccccc21.Cl [VPBBO^+, victoria pure blue BO]	reasonable efficiency	–	intermediate efficacy	–	–
CN(C)c1ccc(C(=C2C=CC(=[N+](C)C)C=C2)c2ccc(N(C)C)cc2)cc1 [CV^+, crystal violet]	–	substantially more efficient in selectively photoinactivating L1210 cells	–	lowered	enhanced

— patent US20040175368A1 (Wisconsin Alumni Research Foundation, priority 2001, published 2004)
